Source: PubChem
C2C12 statin – suppression of simvastatin myotoxicity | C2C12 myotubes + simvastatin, ATP luminescence, 48 h; scaled: DMSO 0, geranylgeraniol control 100 | rescue of ATP level, % at 7.49 µM | AID 602340 | 330,000 tested, 0.78% active;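 active = mean ATP rescue above about 67%, or every replicate alone reaching that limit, limit read from the data, passing the limit was not always enough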;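 also: myotubes were challenged with 10 µM simvastatin during compound exposure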
miR122 inh – inhibitors of miR-122 in Huh7 cells; Huh7 miR-122 Renilla luciferase sensor, 48 h; neutral wells = 0, positive control = 100; activation (reporter increase), % at 12.5 µM; 340,000 tested, 0.3% active; AID 602342;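 active = mean replicate activation score at least 90 and every replicate individually at or above 90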;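 also: higher luciferase means less miR-122 activity so hits act as miR-122 inhibitors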
N-glyco inh – N-linked glycosylation inhibition; D54 ERlucT glycosylation luciferase reporter, 24 h; percent of 100 nM tunicamycin response; reporter increase, % at 12.5 µM; 360,000 tested, 0.23% active; AID 588692;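 active = mean luciferase reporter signal, scaled so untreated is 0 and the glycosylation-blocking control 100, at or above a set limit in every replicate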;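 also: luciferase carries N-glycosylation sites so blocking glycosylation raises the light; 0% = median of neutral control wells and 100% = median of 100 nM tunicamycin wells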
Cneo AK release – causes C. neoformans cell lysis | adenylate kinase release luminescence, 4 h; normalised: neutral wells 0, clomiphene wells 100 | AID 651654 | 360,000 tested, 0.2% active | lysis activity, % at 15 µM;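 active = mean lysis activity across replicates of at least 80%, whatever share of replicates individually reach that level; inactive = mean lysis activity below 80%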
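Schedule: static 4 h at 37 °C with compound, 1 h detection; system: C. neoformans cells; benchmarks: Clomiphene as positive control; buffer or medium: fresh YPD medium; measure: luminescence rise reflecting yeast cell lysis; measured by: luminescent adenylate kinase detection reagent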
Yeast UUG start – modulators of start codon recognition fidelity in yeast; S. cerevisiae UUG-firefly luciferase reporter, luminescence/redox ratio; activity score, % at 18.7 µM; hit rate 0.13% among 350,000; AID 602363;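 active = replicate mean at a twofold rise or more, about +100% in these data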;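 note: firefly luciferase made from a UUG start codon reports start codon fidelity; reporter light over untreated wells divided by growth signal over untreated wells; some hits fall short of that in this replicate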
Numbers without * were called inactive; . = no result given; [ ] = another dose, or the depositor's remark. Shown are actives, neighbours in structure and some others; about 1.2% of the full set was active somewhere.

Short forms – A = C2C12 statin; B = miR122 inh; C = N-glyco inh; D = Cneo AK release; E = Yeast UUG start
> CCCNC(=O)N(C)C[C@@H]1Oc2ncc(-c3ccccc3)cc2C(=O)N([C@H](C)CO)C[C@@H]1C
  A: 24 | B: -8[16.7 µM] | C: . | D: -1 | E: -5
> CCC(=O)N1CCc2cc(Br)cc(S(=O)(=O)CC(=O)OC)c21
  A: 105* | B: 4 | C: 1 | D: 0 | E: -10
> CC(=O)N1CCc2cc(Br)cc(S(=O)(=O)NCCCN3CCC(C)CC3)c21
  A: . | B: 0 | C: 1 | D: 1 | E: -21
> CC(=O)N1CCc2cc(Br)cc(S(=O)(=O)NCc3ccc(Cl)cc3)c21
  A: -7 | B: 110* | C: 0 | D: 4 | E: -4
> CC(=O)OCCC(NS(=O)(=O)OCC(Cl)(Cl)Cl)c1ccccc1 (stereo not drawn)
  A: -3 | B: -2 | C: 1 | D: 1 | E: -21
> CN(C)c1ccc(C=c2c3ccccc3n3c2c2c([n+]3C)CCCC2)cc1
  A: -150 | B: -17 | C: 70* | D: . | E: .
> CCOC(=O)CN(C(=O)CSc1nnc2c(n1)[nH]c1ccc(F)cc12)c1ccccc1
  A: 121* | B: . | C: -6 | D: -2 | E: 6
> CCOC(=O)CN(C(=O)CSc1nnc2c(n1)[nH]c1ccccc12)c1ccccc1
  A: 6 | B: 7 | C: -4 | D: -10 | E: -20
> CCCNC(=O)[C@@H]1[C@@H](CO)[C@@H]2Cn3c(cccc3=O)[C@H]1N2S(=O)(=O)c1ccccc1C
  A: 12 | B: 6[16.7 µM] | C: . | D: -10 | E: .
> Cc1ccc(S(=O)(=O)Nc2ccc3c(c2)CC(=O)N([C@H](C)CO)C[C@H](C)[C@H](CN(C)Cc2ccc(C(=O)Nc4ccccc4N)cc2)O3)cc1
  A: -14 | B: 229*[16.7 µM] | C: . | D: 10 | E: 6
> C[C@H]1CN([C@@H](C)CO)C(=O)Cc2cc(NS(=O)(=O)c3ccc(F)cc3)ccc2O[C@H]1CN(C)Cc1ccc(C(=O)Nc2ccccc2N)cc1
  A: 35 | B: 114*[16.7 µM] | C: . | D: -2 | E: 8
> C[C@@H]1CN([C@@H](C)CO)C(=O)c2cc(NC(=O)Nc3ccc(F)cc3)ccc2O[C@@H](C)CCCCO[C@@H]1CN(C)C(=O)Cc1ccccc1
  A: . | B: 9[16.7 µM] | C: . | D: 48 | E: -11
> O=c1c2ccccc2c(=O)n2n1Cc1ccccc1C2
  A: -4 | B: -7 | C: -1 | D: 3 | E: -9
> CC1=CCn2c(=O)c3ccccc3c(=O)n2C1
  A: 125* | B: -4 | C: -1 | D: -1 | E: 26
> COc1ccc2c(c1)[C@H]1[C@H](CO2)[C@H](c2ccccc2)[C@]2(C)C(=O)Nc3ccccc3C(=O)N12
  A: 2 | B: -10 | C: 67* | D: -2 | E: -7

Other entries follow.
Short forms – A = C2C12 statin; B = miR122 inh; C = N-glyco inh; D = Cneo AK release; E = Yeast UUG start
> COc1ccc2c(c1)OC[C@H]1[C@H]2N2C(=O)c3cc(Br)ccc3NC(=O)[C@@]2(C)[C@H]1c1ccccc1
  A: 0 | B: 0 | C: 36* | D: -4 | E: -2
> COc1ccc2c(c1)C(=O)N1[C@H]3c4cc(OC)ccc4OC[C@@H]3[C@H](c3ccccc3)[C@]1(C)C(=O)N2
  A: -8 | B: -7 | C: 62* | D: -3 | E: 13
> COc1ccc2c(c1)[C@H]1[C@H](CO2)[C@H](c2ccccc2)[C@]2(C)C(=O)Nc3ccc(Br)cc3C(=O)N12
  A: 0 | B: . | C: 41* | D: -9 | E: 30
> Cc1ccc(S(=O)(=O)N[C@H]2CC[C@@H](CCn3cc(-c4cccnc4)nn3)O[C@H]2CO)cc1
  A: -1 | B: . | C: . | D: -16 | E: .
> COc1ccc2c(c1)[C@H]1[C@H](CO2)[C@H](c2ccccc2)[C@]2(C)C(=O)Nc3cc(F)ccc3C(=O)N12
  A: -2 | B: -9 | C: 41* | D: 1 | E: -2
> COc1ccc2c(c1)OC[C@H]1[C@H]2N2C(=O)c3ccc(F)cc3NC(=O)[C@@]2(C)[C@H]1c1ccccc1
  A: . | B: 1 | C: 20 | D: -4 | E: -16
> Cc1ccc2nc(-c3ccc(SCC(=O)Nc4nc(C)cs4)nc3)[nH]c2c1
  A: . | B: 2 | C: -4 | D: 0 | E: 4
> Cc1ccc2nc(-c3ccc(SCC(=O)Nc4nnc(C)s4)nc3)[nH]c2c1
  A: . | B: . | C: 102* | D: . | E: .
> C/C=C/c1ccc2c(c1)O[C@@H](CN(C)Cc1ccc(F)cc1)[C@H](C)CN([C@@H](C)CO)S2(=O)=O
  A: -54 | B: -4[16.7 µM] | C: . | D: -1 | E: -1
> CC(=O)N1c2ccc(S(=O)(=O)NCCC(=O)NCCc3ccc(Cl)cc3)cc2CC1C (stereo not drawn)
  A: -4 | B: -2 | C: -2 | D: -2 | E: 9
> CC(=O)N1c2ccc(S(=O)(=O)NCCC(=O)NCc3ccc(F)cc3)cc2CC1C (stereo not drawn)
  A: 87* | B: 1 | C: 0 | D: 2 | E: -27
> CC(=O)N1c2ccc(S(=O)(=O)NCCC(=O)NCCc3ccc(C)cc3)cc2CC1C (stereo not drawn)
  A: 109* | B: 4 | C: -3 | D: -2 | E: -38
> FC(F)(F)c1nnc2c(Sc3ccccc3)nc3ccc(Cl)cc3n12
  A: -30 | B: 307* | C: 1 | D: 4 | E: -18
> CNC(=O)c1nn(C)c(=O)[nH]c1=O
  A: 5 | B: 0 | C: 0 | D: 5 | E: -24
> C#CC[N+](C)(C)CCCCCCCCCCCC
  A: . | B: . | C: 144* | D: . | E: .

Additional results:
Short forms – A = C2C12 statin; B = miR122 inh; C = N-glyco inh; D = Cneo AK release; E = Yeast UUG start
> C#CC[N+](C)(C)CCCCCCCCCC
  A: . | B: -3 | C: 40* | D: -6 | E: -38
> C[C@@H]1CN([C@H](C)CO)C(=O)c2cc(NC(=O)CCC(F)(F)F)ccc2O[C@@H]1CN(C)Cc1ccccc1
  A: -17 | B: -6[16.7 µM] | C: . | D: 0 | E: -8
> NS(=O)(=O)OCC(Cc1ccccc1)N1C(=O)c2ccccc2C1=O (stereo not drawn)
  A: 111* | B: 2 | C: 0 | D: 3 | E: -11
> O=c1c2ccccc2nc(-c2ccc(Cl)cc2Cl)n1CCCn1ccnc1
  A: 100* | B: 58 | C: 0 | D: -1 | E: -9
> O=C(O)COn1c(-c2ccccc2)nc2ccc([N+](=O)[O-])cc21
  A: 105* | B: 0 | C: -2 | D: -6 | E: -6
> CCOC(=O)C(C)On1c(-c2ccccc2)nc2ccc([N+](=O)[O-])cc21 (stereo not drawn)
  A: . | B: 1 | C: 3 | D: . | E: .
> O=C(Cc1coc(-c2ccc(F)cc2)n1)Nc1ccccc1
  A: 106* | B: -8 | C: -2 | D: -3 | E: -6
> O=C(Cc1cc(C(=O)O)c2ccccc2n1)Nc1ccccc1
  A: -20 | B: 1 | C: 3 | D: -12 | E: -15
> CN1CCN(S(=O)(=O)c2ccc(Cl)cc2)CC1
  A: -8 | B: -2 | C: 1 | D: -8 | E: -17
> CN1CCN(S(=O)(=O)c2ccc(Cc3ccc(S(=O)(=O)N4CCN(C)CC4)cc3)cc2)CC1
  A: 82* | B: 2 | C: -4 | D: . | E: .
> COc1ccc(NC(=O)c2c(C(F)(F)F)nn(C)c2SCc2ccccc2)cc1
  A: -9 | B: 4 | C: -1 | D: -4 | E: -14
> COC(=O)c1ccccc1Sc1c(/C=N/OC(=O)c2ccccc2)c(C(F)(F)F)nn1C
  A: . | B: -5 | C: 1 | D: . | E: .
> Cc1ccc(C(=O)O/N=C/c2c(C(F)(F)F)nn(C)c2Sc2ccc(Cl)cc2)cc1
  A: 116* | B: 0 | C: 0 | D: -5 | E: -1
> COc1ccc(C(=O)O/N=C/c2c(C(F)(F)F)nn(C)c2SCc2ccccc2Cl)cc1
  A: -133 | B: -6 | C: 53* | D: 1 | E: -20
> Cn1nc(C(F)(F)F)c(/C=N/OC(=O)c2ccccc2Cl)c1SCc1ccc(Cl)cc1
  A: -124 | B: 3 | C: 61* | D: 3 | E: -15
> O=C(NCCc1ccccc1)C1CCCN1C(=O)Nc1ccc(Cl)cc1 (stereo not drawn)
  A: 8 | B: 11 | C: 0 | D: -2 | E: -7
> C[C@H](O)C#Cc1cnc2c(c1)C(=O)N([C@H](C)CO)C[C@@H](C)[C@H](CN(C)CC1CCCC1)O2
  A: 22 | B: 4[16.7 µM] | C: . | D: 12 | E: -9

Arranged by heavy-atom count (smallest number first): part of the list above.
Short forms – A = C2C12 statin; B = miR122 inh; C = N-glyco inh; D = Cneo AK release; E = Yeast UUG start
> O=C(Cc1cc(C(=O)O)c2ccccc2n1)Nc1ccccc1
  A: -20 | B: 1 | C: 3 | D: -12 | E: -15
> CCOC(=O)C(C)On1c(-c2ccccc2)nc2ccc([N+](=O)[O-])cc21 (stereo not drawn)
  A: . | B: 1 | C: 3 | D: . | E: .
> COC(=O)c1ccccc1Sc1c(/C=N/OC(=O)c2ccccc2)c(C(F)(F)F)nn1C
  A: . | B: -5 | C: 1 | D: . | E: .
